Biological target: 5-hydroxytryptamine receptor 2A (Rattus norvegicus, UniProt P14842)

The chains behind the UniProt entries cited, without tags or fusion partners.
UniProt P14842, whole entry: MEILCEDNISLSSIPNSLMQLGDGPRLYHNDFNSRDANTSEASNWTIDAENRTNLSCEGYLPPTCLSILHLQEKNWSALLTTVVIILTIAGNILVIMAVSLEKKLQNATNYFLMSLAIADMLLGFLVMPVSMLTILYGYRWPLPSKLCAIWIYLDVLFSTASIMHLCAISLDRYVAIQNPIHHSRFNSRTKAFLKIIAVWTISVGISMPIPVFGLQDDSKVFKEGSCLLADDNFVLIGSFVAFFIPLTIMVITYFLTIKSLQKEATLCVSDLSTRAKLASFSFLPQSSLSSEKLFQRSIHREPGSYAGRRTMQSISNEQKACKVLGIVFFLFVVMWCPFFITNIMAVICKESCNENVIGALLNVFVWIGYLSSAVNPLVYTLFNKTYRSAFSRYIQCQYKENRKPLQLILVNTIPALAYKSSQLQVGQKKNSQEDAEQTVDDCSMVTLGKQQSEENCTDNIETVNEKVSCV

Ki: 5.5 nM
SMILES: Cc1nc2sccn2c(=O)c1CCN1CCC(=C(c2ccc(F)cc2)c2ccc(F)cc2)CC1
